Like-named read-outs stand apart in the source and are kept apart here.
Assays:
[1] = system: LoVo; assay: Cytotoxicity assay (SRB), LoVo
[2] = system: BT474; assay: Cytotoxicity assay (SRB), BT474; settings: read-out: In Vitro Cellular Activity IC50 BT474, BT474 cells, 6 days
[3] = system: HCT-116; assay: Cytotoxicity assay (SRB), HCT-116; format: cell-based
[4] = system: MCF-7; assay: Cytotoxicity assay (SRB), MCF-7; format: cell-based
[5] = biological target: cyclin E/CDK2 enzyme (Homo sapiens, UniProt P24941); assay: CDK2 ELISA kinase assay (phospho-Rb ser 795 detection); format: biochemical
[6] = biological target: cyclin D1/cdk 4 enzyme (Homo sapiens, UniProt P11802); assay: CDK4 ELISA kinase assay (phospho-Rb ser 795 detection); format: biochemical
[7] = biological target: cyclin B/CDK1 enzyme (Homo sapiens, UniProt P06493); assay: CDK1 ELISA kinase assay (phospho-Rb ser 795 detection); format: biochemical
[8] = read-out: In Vitro Cellular Activity IC50 LOVO, LoVo cells, three days
[9] = read-out: In Vitro Cellular Activity IC50 HCT116, HCT116 cells, three days
[10] = read-out: In Vitro Cellular Activity IC50 MCF-7, MCF-7 cells, three days

The chains behind the UniProt entries cited, without tags or fusion partners.
UniProt P11802, whole entry: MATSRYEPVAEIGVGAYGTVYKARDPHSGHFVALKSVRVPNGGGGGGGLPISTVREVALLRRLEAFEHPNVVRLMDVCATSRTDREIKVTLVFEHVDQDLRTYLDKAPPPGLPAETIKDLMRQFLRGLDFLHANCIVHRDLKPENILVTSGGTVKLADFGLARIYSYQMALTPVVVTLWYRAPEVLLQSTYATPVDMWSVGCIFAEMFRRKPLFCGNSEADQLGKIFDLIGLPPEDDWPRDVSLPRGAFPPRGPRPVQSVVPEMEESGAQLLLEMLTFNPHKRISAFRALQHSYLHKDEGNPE
UniProt P06493, whole entry: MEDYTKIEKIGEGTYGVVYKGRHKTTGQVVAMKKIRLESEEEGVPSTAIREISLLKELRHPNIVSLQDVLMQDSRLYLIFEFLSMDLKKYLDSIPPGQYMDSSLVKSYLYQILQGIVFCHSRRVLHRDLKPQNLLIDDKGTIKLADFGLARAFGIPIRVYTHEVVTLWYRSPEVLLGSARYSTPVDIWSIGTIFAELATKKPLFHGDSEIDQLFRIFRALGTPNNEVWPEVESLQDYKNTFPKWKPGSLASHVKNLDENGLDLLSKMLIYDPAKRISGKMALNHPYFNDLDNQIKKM
UniProt P14635, whole entry partner: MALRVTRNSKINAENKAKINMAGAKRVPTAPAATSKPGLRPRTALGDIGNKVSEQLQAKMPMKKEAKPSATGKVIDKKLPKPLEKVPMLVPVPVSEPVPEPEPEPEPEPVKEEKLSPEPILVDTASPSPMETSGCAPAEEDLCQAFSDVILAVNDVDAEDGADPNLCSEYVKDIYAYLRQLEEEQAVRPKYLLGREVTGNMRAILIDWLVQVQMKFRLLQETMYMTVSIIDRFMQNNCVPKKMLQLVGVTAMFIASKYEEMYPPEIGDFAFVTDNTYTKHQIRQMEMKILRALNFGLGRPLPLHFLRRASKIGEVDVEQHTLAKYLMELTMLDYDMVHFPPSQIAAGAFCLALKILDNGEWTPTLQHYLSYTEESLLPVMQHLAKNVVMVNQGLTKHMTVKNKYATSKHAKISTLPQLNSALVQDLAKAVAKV
UniProt P24385, whole entry partner: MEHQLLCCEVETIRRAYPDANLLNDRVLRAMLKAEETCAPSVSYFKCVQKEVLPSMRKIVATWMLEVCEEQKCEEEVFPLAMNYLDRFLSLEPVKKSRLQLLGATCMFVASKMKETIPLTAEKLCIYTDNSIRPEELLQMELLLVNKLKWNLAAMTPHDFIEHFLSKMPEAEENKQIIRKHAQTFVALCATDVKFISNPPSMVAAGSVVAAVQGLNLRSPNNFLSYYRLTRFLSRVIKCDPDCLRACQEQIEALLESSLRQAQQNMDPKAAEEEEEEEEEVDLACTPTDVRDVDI

| IC50 ([5]; read-out: CDK2 IC50, In Vitro Enzyme Assay, cyclin E/CDK2) [µM] | IC50 ([6]; read-out: CDK4 IC50, In Vitro Enzyme Assay, cyclin D1/cdk 4) [µM] | IC50 ([7]; read-out: CDK1 IC50, In Vitro Enzyme Assay, cyclin B/CDK1) [µM] | SMILES | IC50 [1, 8] [µM] | IC50 [2] [µM] | IC50 [3, 9] [µM] | IC50 [4, 10] [µM] | IC50 ([5]; read-out: CDK2 IC50, In Vitro Enzyme Assays) [µM] | IC50 ([6]; read-out: CDK4 IC50, In Vitro Enzyme Assays, 200 μM ATP) [µM] | IC50 ([7]; read-out: CDK1 IC50, In Vitro Enzyme Assays) [µM] | IC50 ([1]; read-out: In Vitro Cellular Activity IC50 LOVO, LoVo cells, 3 days) [µM] | IC50 ([3]; read-out: In Vitro Cellular Activity IC50 HCT116, HCT116 cells, 3 days) [µM] | IC50 ([4]; read-out: In Vitro Cellular Activity IC50 MCF-7, MCF-7 cells, 3 days) [µM] |
| --- | --- | --- | --- | --- | --- | --- | --- | --- | --- | --- | --- | --- | --- |
| – | – | – | CC(=O)Nc1ccc2c(c1)/C(=C/Nc1ccc(N3CCN(C)CC3)cc1)C(=O)NC2=O | 13 | 17 | 6.6 | 11 | – | – | – | – | – | – |
| – | – | – | Cc1cc(N/C=C2\C(=O)NC(=O)c3ccc(Br)cc32)cnc1C1C[C@@H](C)N[C@@H](C)C1 (stereo partly drawn) | 6.5 | 5.6 | 3.5 | 5.6 | > 50 | 3.1 | > 50 | – | – | – |
| > 50 | 0.44 | > 50 | C[C@@H]1CN(c2ccc(N/C=C3\C(=O)NC(=O)c4ccc(-c5ccc(CO)o5)cc43)cn2)C[C@H](C)N1 | – | 11.1 | – | – | – | – | – | 9.19 | 5.72 | 8.91 |

From US7713994B2 (Wyeth LLC, priority 2005, dated 2010)
